Measurements as given in EP0260829A2 (priority 1986, dated 1988).

System: anti-PCP antibody from ATCC HB 9198
Assay: competitive inhibition enzyme immunoassay (CIEIA)
Design: species or system rat
Settings: read-out: Molar IC50; molar concentration of chemical that inhibits 50% of the binding of anti-PCP to the coated plate; NI = Not Inhibitory

Compound `Cc1cccc([N+](=O)[O-])c1[N+](=O)[O-]` has an IC50 of over 1000 µM.
Work on `Cc1ccc([N+](=O)[O-])cc1[N+](=O)[O-]` yielded an IC50 of over 1000 µM.

This is a selection: effects in other tests are not listed, and their absence says nothing.
